Where a name gives a salt, the structure may show the parent alone.
Target: recombinant perforin (UniProt P10820)
Type: cell-based
Settings: read-out: Jurkat IC50; lysis of Jurkat T lymphoma cells by recombinant perforin, 0.1% BSA, 30 min pre-incubation, 4 hours at 37° C.
Procedure: Inhibition of perforin-mediated lysis of Jurkat cells.
The ability of the compounds to inhibit the lysis of nucleated (Jurkat T lymphoma) cells in the presence of 0.1% BSA, as measured by release of ^51Cr was measured. Jurkat target cells were labelled by incubation in medium with 100 μCi ^51Cr for one hour. The cells were then washed three times to remove unincorporated isotope and re-suspended at 1×10^5 cells per mL in RPMI buffer supplemented with 0.1% BSA. […] Each data point was performed in triplicate and an IC50 was calculated from the range of concentrations described to above.

Sequences of proteins named here, by UniProt entry; tags and fusion partners are left off. A change or cut given only in a name is not applied to a line headed by its entry.
UniProt P10820: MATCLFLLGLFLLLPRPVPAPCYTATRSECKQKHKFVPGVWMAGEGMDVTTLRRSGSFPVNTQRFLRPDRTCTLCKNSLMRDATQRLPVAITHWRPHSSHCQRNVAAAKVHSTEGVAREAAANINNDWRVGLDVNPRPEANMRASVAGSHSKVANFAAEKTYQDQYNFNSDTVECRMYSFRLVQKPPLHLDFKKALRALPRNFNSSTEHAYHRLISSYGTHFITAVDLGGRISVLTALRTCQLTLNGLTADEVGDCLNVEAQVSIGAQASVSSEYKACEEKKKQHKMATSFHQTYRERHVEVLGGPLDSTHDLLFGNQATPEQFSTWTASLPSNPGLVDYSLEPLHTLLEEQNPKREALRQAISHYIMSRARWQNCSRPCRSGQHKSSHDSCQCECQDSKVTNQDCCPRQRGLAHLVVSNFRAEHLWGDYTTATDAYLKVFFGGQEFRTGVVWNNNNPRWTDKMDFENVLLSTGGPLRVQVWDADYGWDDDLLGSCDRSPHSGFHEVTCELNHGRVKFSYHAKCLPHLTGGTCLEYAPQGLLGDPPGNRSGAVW

Question: For `COc1ccc(S(=O)(=O)Nc2cncc(-c3ccc(-c4ccc5c(c4)CN(C)C5=O)s3)c2)cc1OC` [Compound 21.Na, 3,4-Dimethoxy-N-(5-(5-(2-methyl-1-oxoisoindolin-5-yl)thiophen-2-yl)pyridin-3-yl)benzenesulfonamide, sodium salt], which IC50 is on record?
Answer: The IC50 was 13.8 µM.

Question: Which IC50 does the source give for `CN1Cc2cc(-c3ccc(-c4cncc(NS(=O)(=O)c5ccc(F)cc5F)c4)s3)ccc2C1=O` [Compound 1.Na, 2,4-Difluoro-N-(5-(5-(2-methyl-1-oxoisoindolin-5-yl)thiophen-2-yl)pyridin-3-yl)benzenesulfonamide, sodium salt] here?
Answer: The IC50 was 1.59 µM.

Reference: patent publication US9896443B2, “Perforin inhibiting benzenesulfonamide compounds, preparation and uses thereof” (Peter MacCallum Cancer Institute, priority 2012, dated 2018)
